Measured affinities in a library of Ab-14 heavy chain variants

Target: peptide PDVDLGDISGINAS, taken from heptad repeat 2 (HR2) of SARS-CoV-2 spike.

Parent scFv Ab-14: VH joined to VL by the linker GGGGSGGGGSGGGGS. Changes lie in the heavy chain CDRs alone.
VH: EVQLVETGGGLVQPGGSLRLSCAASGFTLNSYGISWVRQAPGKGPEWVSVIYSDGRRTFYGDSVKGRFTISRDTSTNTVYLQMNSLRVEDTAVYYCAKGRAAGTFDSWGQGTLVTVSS
VL: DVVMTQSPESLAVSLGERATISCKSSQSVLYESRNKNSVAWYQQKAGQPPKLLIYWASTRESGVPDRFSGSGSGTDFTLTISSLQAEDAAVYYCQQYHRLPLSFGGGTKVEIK

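Phage display of a naive human antibody library on the peptide gave the parent. Variants in AAYL49 differ from the parent at up to three CDR positions; double and triple changes were sampled at random. Affinity was read by AlphaSeq, a pooled yeast mating assay with surface-displayed partners. After mating in shaken culture at 30 °C for 16 h, diploids were selected and their barcode pairs sequenced. Scores were corrected for input abundance and mapped to Kd with protein pairs of known affinity run in the same pool. The assay was run in three technical replicates.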

Positions count from residue 1 of the parent VH; I51S puts S in place of I.
The read-out is the apparent dissociation constant on a log10 scale (nM): the lower, the stronger.
Averages over replicates are reported, and they cover detected replicates only.
"no signal" marks a missing value. The strain was present, yet no cells mated with the target were sequenced in any replicate, which points to weak or no binding.
As a blank, each scFv also met three strains without target: over library AAYL49, 15% of these pairings were detected, typically at 4.06 and seldom below 2.83.

mean, log10 nM | replicates with signal | changes
no signal | 0 of 3 | I51S F105G
3.91 | 1 of 3 | T28P V50N T104N
no signal | 0 of 3 | R57E Y60V D62S
3.91 | 1 of 3 | N30H V50E A101G
3.42 | 1 of 3 | G61F D106W
4.98 | 1 of 3 | T28M G55N
no signal | 0 of 3 | Y32I F59S S107W
no signal | 0 of 3 | S31V S35Q T58S
no signal | 0 of 3 | N30D R57E S107N
4.66 | 1 of 3 | I34S D54H G99W
no signal | 0 of 3 | Y52F F59A G99Y
no signal | 0 of 3 | G26L G55A S107C
no signal | 0 of 3 | S31Y G33M Y52S
3.25 | 1 of 3 | F27P F105T
5.06 | 3 of 3 | S35T Y52P G99N
no signal | 0 of 3 | F27I S35V R100L
4.43 | 1 of 3 | G33Q S63N S107Y
no signal | 0 of 3 | F27H R57P F105D
3.34 | 1 of 3 | T58L T104D
2.40 | 1 of 3 | N30I S31W G61H
no signal | 0 of 3 | G55S R57H S63W
no signal | 0 of 3 | Y52N D54F G99F
no signal | 0 of 3 | I34Q D62V T104F
no signal | 0 of 3 | R56I R57T D62G
5.11 | 1 of 3 | R100S T104H F105S
no signal | 0 of 3 | I51G G55Q D106L
no signal | 0 of 3 | I34D G55A F59V
no signal | 0 of 3 | N30C I34D T58Q
no signal | 0 of 3 | Y32M R57D
2.61 | 1 of 3 | Y32F I51Q V64C
1.47 | 3 of 3 | K65A S107N
no signal | 0 of 3 | I34K S35W G55Y
1.67 | 3 of 3 | G61C S63H
4.55 | 2 of 3 | T28I G99N A102E
no signal | 0 of 3 | L29W S63E D106T
2.99 | 3 of 3 | F27M Y52F T104G
4.67 | 1 of 3 | S53T S63L A102E
3.01 | 3 of 3 | T28W R100V T104Y
no signal | 0 of 3 | Y32L S53R A101M
2.83 | 3 of 3 | F59Q D62I K65Q
no signal | 0 of 3 | S35V I51L S63W
0.87 | 3 of 3 | S63A T104N S107D
4.64 | 1 of 3 | G26A Y32F Y52W
no signal | 0 of 3 | G26L L29F Y32W
no signal | 0 of 3 | N30R Y32Q G55S
2.86 | 3 of 3 | G26L T58E G61T
4.23 | 1 of 3 | L29V I51A D54V
2.67 | 3 of 3 | N30Y S63F A101M
4.69 | 3 of 3 | I34A D54F F105V
no signal | 0 of 3 | L29G S31K G33L
4.25 | 2 of 3 | S31Y R57H A102S
no signal | 0 of 3 | L29R S53P F105K
2.26 | 3 of 3 | R56A G61P S107A
3.40 | 1 of 3 | T58E D62L K65A
4.73 | 1 of 3 | F27T Y52I G99F
no signal | 0 of 3 | T58V A102Y T104D
no signal | 0 of 3 | G26E R56Y D106T
3.29 | 1 of 3 | I34R Y60A D62E
5.25 | 1 of 3 | G26N T58N K65F
no signal | 0 of 3 | I51P F59V A102D
3.45 | 3 of 3 | F27Q S53T D106R
3.90 | 1 of 3 | G33N S63H G99S
no signal | 0 of 3 | N30H D62C G103A

The closing 10 entries, repeated:

| changes | mean, log10 nM | replicates with signal |
|---|---|---|
| T58E D62L K65A | 3.40 | 1 of 3 |
| F27T Y52I G99F | 4.73 | 1 of 3 |
| T58V A102Y T104D | no signal | 0 of 3 |
| G26E R56Y D106T | no signal | 0 of 3 |
| I34R Y60A D62E | 3.29 | 1 of 3 |
| G26N T58N K65F | 5.25 | 1 of 3 |
| I51P F59V A102D | no signal | 0 of 3 |
| F27Q S53T D106R | 3.45 | 3 of 3 |
| G33N S63H G99S | 3.90 | 1 of 3 |
| N30H D62C G103A | no signal | 0 of 3 |

Data: MIT Lincoln Laboratory AlphaSeq set, Engelhart et al. 2022, doi:10.1038/s41597-022-01779-4, as distributed in FLAb.